# scFv variants of Ab-14 (heavy chain) against a SARS-CoV-2 spike peptide

Source: Engelhart et al. 2022 (doi:10.1038/s41597-022-01779-4), MIT Lincoln Laboratory and A-Alpha Bio; data file from the FLAb repository.

All variants were tested on one target, the spike HR2 peptide PDVDLGDISGINAS (SARS-CoV-2).

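The parent was found by panning a naive human phage display library on the peptide. The library (AAYL49) carries one to three amino acid substitutions per variant, with no insertions or deletions. The assay is AlphaSeq: two haploid yeast populations carry antibody and antigen on their surface. Binding brings cells together so that they mate, and sequencing counts the barcode pairs among the diploids. Read counts were normalised to the haploid input and turned into Kd by a linear fit to BCL2-family pairs of known affinity, for each replicate. There are three technical replicates.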

Parent scFv Ab-14: VH joined to VL by the linker GGGGSGGGGSGGGGS. Changes lie in the heavy chain CDRs alone.
VH: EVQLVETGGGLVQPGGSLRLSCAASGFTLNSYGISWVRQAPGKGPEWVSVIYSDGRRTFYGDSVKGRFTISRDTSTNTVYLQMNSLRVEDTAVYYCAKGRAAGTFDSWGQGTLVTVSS
VL: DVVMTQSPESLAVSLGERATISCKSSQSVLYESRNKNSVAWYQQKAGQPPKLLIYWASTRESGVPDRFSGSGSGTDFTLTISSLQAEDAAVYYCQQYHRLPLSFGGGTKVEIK

Positions count from residue 1 of the parent VH; Y32V puts V in place of Y. Every variant below is changed at A102 of the VH (sequential numbering). Values are log10 of the apparent Kd in nM; lower means stronger binding. Averages over replicates are reported, and they cover detected replicates only. An entry "ND" has no value in the source: the pair was not observed among the diploids in that replicate. This suggests poor binding but is not conclusive. In this assay the parent's reference entry averaged 0.65; its copy inside this library read 4.11 (one replicate of three).

- Y32V/A102R -> ND, ND, ND (controls 0 of 9)
- S63D/A102C/D106S -> ND, ND, ND (controls 0 of 9)
- I34Q/T58I/A102I -> ND, 3.20, ND (controls 0 of 9)
- G61C/A102Q/S107M -> 0.83, 1.05, 1.23 (mean 1.03; controls 1 of 9)
- Y52Q/A101E/A102C -> ND, ND, 3.98 (controls 1 of 9)
- N30A/F59D/A102S -> 3.92, ND, ND (controls 0 of 9)
- Y32N/D54M/A102M -> ND, ND, ND (controls 0 of 9)
- G55L/F59Q/A102L -> ND, ND, ND (controls 0 of 9)
- S31N/F59Y/A102T -> 0.46, 0.55, 0.47 (mean 0.49; controls 2 of 9)
- G26V/Y60M/A102N -> ND, ND, ND (controls 1 of 9)
- V50G/Y52V/A102Y -> ND, ND, ND (controls 0 of 9)
- S31E/R56V/A102I -> 0.31, 0.58, 0.64 (mean 0.51; controls 4 of 9)
- R56V/T58R/A102W -> 4.98, 2.87, 3.70 (mean 3.85; controls 3 of 9)
- S35K/R56S/A102G -> ND, ND, ND (controls 2 of 9)
- R56G/A102P/S107E -> 3.90, 3.63, ND (mean 3.77; controls 3 of 9)
- D62T/A102Y/D106V -> 3.56, 2.77, 2.95 (mean 3.10; controls 1 of 9)
- G55K/A102I/D106V -> ND, ND, ND (controls 0 of 9)
- L29N/V64R/A102I -> ND, ND, ND (controls 1 of 9)
- R56L/R100W/A102V -> 1.99, 1.98, 1.69 (mean 1.89; controls 0 of 9)
- I34V/F59M/A102W -> 5.33, ND, ND (controls 2 of 9)
- F27R/N30A/A102Q -> ND, 2.99, ND (controls 1 of 9)
- G26T/I34F/A102H -> ND, 3.83, 5.26 (mean 4.54; controls 6 of 9)
- T58L/F59W/A102W -> ND, ND, ND (controls 0 of 9)
- G33H/Y52L/A102S -> 3.92, ND, ND (controls 3 of 9)
- A102Y -> 0.47, 0.32, 0.32 (mean 0.37; controls 0 of 9)
- T28E/N30G/A102T -> 0.16, 0.52, 0.37 (mean 0.35; controls 1 of 9)
- L29W/Y32R/A102C -> ND, ND, ND (controls 1 of 9)
- G26M/L29N/A102I -> ND, ND, ND (controls 1 of 9)
- N30I/A102H -> 2.22, 1.91, 2.45 (mean 2.19; controls 0 of 9)
- N30W/I34H/A102P -> 3.17, 2.16, 2.98 (mean 2.77; controls 6 of 9)
- T28S/A102W -> 2.28, 1.85, 2.32 (mean 2.15; controls 4 of 9)
- S31R/G33T/A102L -> ND, 3.72, ND (controls 2 of 9)
- R56P/V64D/A102G -> ND, ND, ND (controls 0 of 9)
- V50R/R56M/A102L -> 5.13, ND, ND (controls 1 of 9)
- G33P/I51D/A102D -> ND, ND, ND (controls 0 of 9)
- S53I/R57G/A102E -> ND, ND, ND (controls 1 of 9)
- R56D/A102Y/D106I -> 4.60, 3.92, ND (mean 4.26; controls 0 of 9)
- R57H/G61D/A102F -> 1.34, 1.58, 1.32 (mean 1.41; controls 3 of 9)
- A102K/S107V -> ND, 4.25, ND (controls 6 of 9)

A selection of 6 entries from above:

changes	replicates, log10 nM	log10 Kd (nM), mean	empty controls
Y32N/D54M/A102M	ND, ND, ND	ND	0/9
G26T/I34F/A102H	ND, 3.83, 5.26	4.54	6/9
R56L/R100W/A102V	1.99, 1.98, 1.69	1.89	0/9
G55K/A102I/D106V	ND, ND, ND	ND	0/9
Y52Q/A101E/A102C	ND, ND, 3.98	3.98	1/9
G61C/A102Q/S107M	0.83, 1.05, 1.23	1.03	1/9

Three control strains display no target. For library AAYL49, 15% of the pairings with them gave a signal, with a median of 4.06 and one signal in twenty below 2.83, so weak values seen in few replicates may be background. For each scFv, signals with the empty controls are counted beside the result.